Assay results from patent publication US9556135B2, “Amino-dihydrothiazine and amino-dioxido dihydrothiazine compounds as beta-secretase antagonists and methods of use” (Amgen Inc., priority 2012, dated 2017).

The chains behind the UniProt entries cited, without tags or fusion partners. Residues count along the entry.
UniProt P56817, 46-501 limits assumed: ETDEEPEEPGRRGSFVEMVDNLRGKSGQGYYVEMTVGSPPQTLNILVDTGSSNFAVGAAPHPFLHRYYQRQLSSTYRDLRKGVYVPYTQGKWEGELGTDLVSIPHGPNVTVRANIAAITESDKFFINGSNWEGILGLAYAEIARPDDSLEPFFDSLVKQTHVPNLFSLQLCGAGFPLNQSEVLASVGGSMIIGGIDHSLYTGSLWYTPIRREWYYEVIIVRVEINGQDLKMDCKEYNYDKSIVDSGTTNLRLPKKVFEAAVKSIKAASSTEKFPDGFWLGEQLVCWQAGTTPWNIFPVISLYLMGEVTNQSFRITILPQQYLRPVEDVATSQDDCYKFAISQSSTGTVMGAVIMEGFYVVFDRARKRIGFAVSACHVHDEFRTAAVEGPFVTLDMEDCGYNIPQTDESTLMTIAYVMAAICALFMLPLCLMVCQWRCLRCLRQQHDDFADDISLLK
UniProt P07339, 65-412 limits assumed: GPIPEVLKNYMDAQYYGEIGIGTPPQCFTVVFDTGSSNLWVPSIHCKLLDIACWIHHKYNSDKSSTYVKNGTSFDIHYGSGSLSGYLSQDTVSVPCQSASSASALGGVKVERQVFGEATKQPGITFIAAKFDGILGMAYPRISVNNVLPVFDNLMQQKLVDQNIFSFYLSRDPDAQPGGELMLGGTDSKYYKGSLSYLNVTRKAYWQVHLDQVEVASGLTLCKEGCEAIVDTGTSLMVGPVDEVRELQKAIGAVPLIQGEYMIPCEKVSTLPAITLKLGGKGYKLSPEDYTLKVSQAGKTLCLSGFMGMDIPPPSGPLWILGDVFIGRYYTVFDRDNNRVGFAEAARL

Assays:
[1] = test system: Aβ40 in conditioned medium of cells stably expressing Amyloid Precursor Protein (APP); experiment: In vitro BACE cell-based assay (HEK cell assay), Aβ40 sandwich ELISA; conditions: read-out: HEK cell assay IC50; average IC50, HEK cell assay
[2] = target: Beta Secretase enzyme (BACE1) (Homo sapiens (Human), UniProt P56817); experiment: In vitro enzymatic BACE FRET assay; type: biochemical; conditions: read-out: BACE1 FRET assay IC50; average IC50, enzyme assay
Cathepsin D (Cat D) = Cathepsin D (Cat D) (Homo sapiens (Human), UniProt P07339); experiment: In vitro enzymatic Cathepsin D (Cat D) FRET assay; type: biochemical; conditions: read-out: CatD IC50
Procedure: In Vitro Enzymatic Cathepsin D (Cat D) FRET (Fluorescence Resonance Energy Transfer) Assay Recombinant Cat D was expressed in CHO cells. […] The Cat D enzyme (9 nM) is pre-incubated for one hour with inhibitors, typically in about 1 uL of DMSO according to a serial dilution, is added thereto. […] The FRET assay is terminated with by addition of Tris buffer, which raises the pH to neutrality, and the fluorescence is determined. The FRET substrate is a peptide with commercially available fluorophore and quencher, on opposite sides of the BACE cleavage site. The Cat D substrate peptide sequence is based on sequence #1 of Table 1 from Gulnik et al. […] Where available, the in-vitro Cat D FRET assay data for each of the Examples, conducted by the first procedure, is provided.

Row | Structure (SMILES) | pIC50 [1] | pIC50 [2] | pIC50 (Cathepsin D (Cat D))
1 | NC1=N[C@](CF)(c2cc(Br)ccc2F)CS(=O)(=O)C12CC2 | 4.97 | 5.64 | 4.10
2 | NC1=N[C@@](CF)(c2cc(Br)ccc2F)CS(=O)(=O)C12CC2 | < 4.81 |  | 

pIC50: −log10 of the molar value.
